Data: patent US8957083B2, “Spiro-amino-imidazolone and spiro-amino-dihydro-pyrimidinone compounds as beta-secretase modulators and methods of use” (Amgen Inc., priority 2010, dated 2015)

By UniProt entry, the sequences of proteins in these tests, tags left out. Residues count along the entry.
UniProt P56817, 46-501: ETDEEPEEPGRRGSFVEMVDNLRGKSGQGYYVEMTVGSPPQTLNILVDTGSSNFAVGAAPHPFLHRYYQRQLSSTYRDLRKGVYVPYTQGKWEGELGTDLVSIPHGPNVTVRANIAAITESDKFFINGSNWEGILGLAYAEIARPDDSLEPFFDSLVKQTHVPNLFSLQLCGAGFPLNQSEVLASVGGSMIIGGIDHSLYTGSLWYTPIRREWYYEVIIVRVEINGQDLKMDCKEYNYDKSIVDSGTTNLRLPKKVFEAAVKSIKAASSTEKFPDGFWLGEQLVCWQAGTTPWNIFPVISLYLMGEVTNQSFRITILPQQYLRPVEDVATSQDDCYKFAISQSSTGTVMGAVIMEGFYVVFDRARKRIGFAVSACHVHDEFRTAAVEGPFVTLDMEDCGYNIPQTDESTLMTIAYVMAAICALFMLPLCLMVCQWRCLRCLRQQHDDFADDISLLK

Molecular target: BACE 1 (Beta Secretase enzyme) (Homo sapiens (Human), UniProt P56817)
Assay: In vitro enzymatic BACE FRET assay
Type: biochemical
Details: average IC50; enzyme 0.2 nM, FRET substrate 50 nM, pH 4.2
Protocol: In Vitro Enzymatic BACE FRET (Fluorescence Resonance Energy Transfer) Assay (Enzyme Assay Data in the Example Table I)
The assay buffer used in this screen is 0.05 M acetate, pH 4.2, 10% DMSO final, 100 uM genapol (which is a nonionic detergent, below its Critical Micelle Concentration). […] This assay is effectively started by the addition of FRET substrate (50 nM) and the combination is incubated for one hour. The FRET assay is terminated with by addition of Tris buffer, which raises the pH to neutrality, and the fluorescence is determined. The FRET substrate is a peptide with commercially available fluorophore and quencher, on opposite sides of the BACE cleavage site. Proteolytic cleavage of the FRET substrate releases quenching of fluorescence (excitation […] and […]).

IC50: 437 nM
Structure (SMILES): CN1C(=O)C[C@@]2(N=C1N)c1cc(-c3cccnc3F)ccc1Oc1cnc(-c3ccnc(F)c3)cc12 [Example 21-A, (R)-7-(2-Fluoropyridin-3-yl)-3-(2-fluoropyridin-4-yl)-2′-imino-1′-methyl-2′,3′-dihydro-1′H-spiro[chromeno[2,3-c]pyridine-5,4′-pyrimidin]-6′(5′H)-one]
